The other results are listed elsewhere or left out.

This test has as its system A. baumannii ATCC 17978. As to the kind of experiment: relative growth (fraction of control); higher = less inhibition. To be noted: 50 µM.
Compound `Nc1ccc2cc3ccc(N)cc3nc2c1.O=S(=O)(O)O` came in with a relative growth of 0.623.
Then `COc1cc2nc(N3CCN(C(=O)C4COc5ccccc5O4)CC3)nc(N)c2cc1OC.CS(=O)(=O)O` (stereo unspecified), with 1.04; and `CC(C)N1C(=O)[C@@H]2[C@@H](C1=O)[C@@H]1C=C[C@@H]2O1`, with 0.93; and `COCCCNc1ncnc(N)c1[N+](=O)[O-]`, with 1.03.
Then `COc1cc(O)c2c(=O)c(O)c(-c3ccccc3)oc2c1`, with 1.06; and `CC/C(=C(/CC)c1ccc(O)cc1)c1ccc(O)cc1`, with 0.741; and `C1CNCCN1.C[C@]12CCC3c4ccc(OS(=O)(=O)O)cc4CCC3C1CCC2=O` (stereo partly specified), with 1.1.
Then `COC(=O)C1=CC(CCCO)=C[C@@H](c2ccc(CN3CCCC3)cc2)N(Cc2sc3ccccc3c2Cl)C=C1C(=O)OC`, with 0.974.
Turning to `CCNC(=O)C[C@@H]1CC[C@@H]2[C@H](COC[C@@H](O)CN2C(=O)Nc2c(C)noc2C)O1`, the relative growth worked out at 0.919.
Compound `C#CCN([C@H](/C=C/C1CC1)[C@@H](O)CCn1cc(CCC(=O)NO)nn1)[C@@H](Cc1ccccc1)C(=O)OC` returned a relative growth of 1.07.
The result for `O=C1[C@@H]2[C@H](O)CS[C@@H]2C(=O)N1c1ccccc1` reads 1.07; that for `COc1ccc(C#Cc2cnc3c(c2)C(=O)N([C@@H](C)CO)C[C@@H](C)[C@H](CN(C)C(=O)CN(C)C)O3)cc1`, 1.01; that for `C[C@@H](O)[C@H]1C(=O)N2C(C(=O)O)=C(SC3CN[C@H](C(=O)N(C)C)C3)[C@H](C)[C@H]12` (stereo partly specified), 0.171.
Then `CCCCCCCCCCCCCCCCOc1nc2ccc(C)cc2c(=O)o1`, with 0.959; and `CCC(=O)Nc1ccc2c(c1)C(=O)N(C)C[C@@H](OC)[C@@H](C)CN(C(=O)CN1CCOCC1)[C@H](C)CO2`, with 1.02.
Then `Cc1sc(Nc2ccccc2)nc1-c1ccc(Cl)cc1`, with 1.28; and `CC(=O)/N=c1\sc(S(N)(=O)=O)nn1C`, with 0.903; and `C/C=C1\[C@H](O[C@@H]2O[C@H](CO)[C@@H](O)[C@H](O)[C@H]2O)OC=C(C(=O)OC)[C@H]1CC(=O)OC[C@H]1O[C@@H](OCCc2ccc(O)cc2)[C@H](O)[C@@H](O)[C@@H]1OC(=O)C[C@@H]1C(C(=O)OC)=CO[C@@H](O[C@@H]2O[C@H](CO)[C@@H](O)[C@H](O)[C@H]2O)/C1=C\C`, with 0.992.
As to `COc1ccc([Si](C)(C)[C@H]2[C@H](CC(=O)N3Cc4ccccc4C[C@H]3CO)O[C@@]3(C(=O)N(Cc4cccc(N5C(=O)c6cccc7cccc5c67)c4)c4ccccc43)[C@@H]2C)cc1`, the relative growth is 1.04.
Then `O=C(C[C@@H]1CC[C@H]2[C@@H](COC[C@@H](O)CN2S(=O)(=O)c2ccccc2F)O1)NCc1ccccc1F`, with 1.07; and `CC(=O)NCCc1ccc(O)c(-c2c(O)c(O)c3c(c2O)C(=O)c2c(cc(O)c(C(=O)O)c2C(=O)O)C3=O)c1`, with 1.11.
Then `Cc1noc(C)c1NC(=O)N[C@H]1C=C[C@@H](CC(=O)N2CCN(C)CC2)O[C@@H]1CO`, with 0.956.
The compound `COCC#Cc1ccc2c(c1)O[C@@H](CN(C)C(=O)COC)[C@@H](C)CN([C@H](C)CO)S2(=O)=O` yielded a relative growth of 0.837.
The result for `O=C(C[C@@H]1CC[C@@H]2[C@H](COC[C@H](O)CN2C(=O)c2ccncc2)O1)NC1CCC1` reads 1.06; that for `C[C@]12C=CC(=O)C=C1CCC1C3C[C@@H](O)[C@](O)(C(=O)CO)[C@@]3(C)C[C@H](O)[C@@]12F` (stereo partly specified), 0.975; that for `COc1ccc(S(=O)(=O)N2C[C@@H](O)COC[C@H]3O[C@@H](CC(=O)NCCN4CCCCC4)CC[C@@H]32)cc1`, 1.04.
The result for `O=C(C[C@@H]1CC[C@H](NC(=O)c2ccc(F)cc2)[C@H](CO)O1)NCc1ccncn1` reads 0.958; that for `CC(Oc1c(Cl)cccc1Cl)C1=NCCN1.Cl` (stereo unspecified), 0.871; that for `CC[C@@H]1C(=O)OC[C@@H]1Cc1cncn1C.O=[N+]([O-])O`, 0.983.
Regarding `C[C@@H](O)[C@H]1C(=O)N2C(C(=O)[O-])=C(SC3Cn4cnc[n+]4C3)[C@H](C)[C@H]12` (stereo partly specified), the relative growth is 0.561.
Then `CC(C)CC#Cc1ccc2c(c1)O[C@@H](CN(C)S(=O)(=O)c1cccc(F)c1)[C@H](C)CN([C@@H](C)CO)S2(=O)=O`, with 1.31; and `O=C(NC[C@@H](O)CO)[C@]1(CCS(=O)(=O)c2ccccc2)N=C(c2ccc(OCCCO)cc2)O[C@@H]1c1ccccc1`, with 0.988.
Then `Cc1nc(-c2ccc(OCC(C)C)c(C#N)c2)sc1C(=O)O`, with 1.2; and `CC(C(=O)O)c1ccc2c(c1)CC(=O)c1ccccc1S2` (stereo unspecified), with 1.05; and `COCC#Cc1cnc2c(c1)C(=O)N([C@H](C)CO)C[C@H](C)[C@H](CN(C)S(=O)(=O)c1ccccc1)O2`, with 1.07.
The result for `COc1ccc(S(=O)(=O)N[C@@H]2CC[C@H](CC(=O)N3CCN(c4ccccc4)CC3)O[C@@H]2CO)cc1` reads 0.97.
With `CN1CCN(C(=O)C[C@@H]2C=C[C@H](NS(=O)(=O)c3cccc(F)c3)[C@H](CO)O2)CC1`, the relative growth stood at 0.966.
Then `COc1ccc(-n2c(C)cc(CN)c2C)cc1`, with 0.878.
Turning to `CC1(C)S[C@@H]2C(N3C(=O)[C@@H](c4ccccc4)NC3(C)C)C(=O)N2[C@H]1C(=O)[O-].[K+]` (stereo partly specified), the relative growth came out at 0.153.
As for `CCNc1cc(=N)n(CC)c2n[nH]c(N)c12`, the relative growth was 1.05.
Compound `C[C@@H]1CN([C@@H](C)CO)C(=O)c2ccccc2-c2ccccc2CO[C@@H]1CN(C)C(=O)Nc1ccccc1C(F)(F)F` yielded a relative growth of 1.03.
The result for `CC(=O)NCCCC[C@@H]1NC(=O)[C@@H]2C[C@H](C(=O)NCc3ccc(F)cc3)[C@H](c3ccc(O)cc3)N2C1=O` reads 1.01; that for `C=C(C)C1CC=C(CO)CC1` (stereo unspecified), 1.08; that for `Cc1n[nH]c(NCc2ccco2)nc1=O`, 1.
Consider `O=C(Cc1ccncc1)NCC[C@H]1CC[C@H](NC(=O)C2CCOCC2)[C@H](CO)O1`, for which the relative growth was found to be 0.931.
Compound `COC(=O)c1cnn2c(=O)cc(C)[nH]c12` displayed a relative growth of 1.06.
`CC(=O)N[C@@H]1[C@@H](OCCOc2ccc(Cl)cc2C)O[C@H](CO)[C@H](O)[C@@H]1O` registered a relative growth of 1.2.
Then `NC(=O)[C@@]1(CCS(=O)(=O)c2ccccc2)N=C(c2ccc(OCCCO)cc2)O[C@H]1c1ccccc1`, with 0.941.
Regarding `N#C/C(=N\O)C(=O)c1ccco1`, the relative growth came out at 0.966.
For the compound `N#C[C@H](c1ccccn1)N1CCOCC1`, the relative growth stood at 0.808.
Then `CO/N=C1\C[C@]2(C[C@@H]3C[C@@H](C/C=C(\C)C[C@@H](C)/C=C/C=C4\CO[C@@H]5[C@H](O)C(C)=C[C@@H](C(=O)O3)[C@]45O)O2)O[C@H](/C(C)=C/C(C)C)[C@H]1C`, with 1.01; and `O=C(C[C@@H]1C=C[C@H](NC(=O)CN2CCOCC2)[C@@H](CO)O1)NCc1cccc(F)c1`, with 0.989.
The result for `C[C@@H]1CN([C@H](C)CO)S(=O)(=O)c2ccc(C#C[C@@H](C)O)cc2O[C@@H]1CN(C)C` reads 1.05; that for `OCC1c2ccccc2-c2ccccc21`, 1.04.
Turning to `Cn1c(=O)c2c(ncn2C[C@@H](O)CO)n(C)c1=O`, the relative growth is 1.03.
The result for `CN(C)C(=O)CSc1nnc(N)s1` reads 1.02; that for `C=CCN(C#N)c1nc(N(C)C)nc(N(C)C)n1`, 0.847; that for `CC(=O)c1c(O)cc(O)cc1O`, 0.918.
Then `O=S(=O)(NCCCCN(C/C=C/c1ccccc1)C/C=C/c1ccccc1)c1cccc2cnccc12`, with 0.861.
As for `CC(=O)O[C@@H]1CC2C(C)(CC[C@H](O)C2(C)C)C2CC[C@]3(C)C(=CC(=O)O[C@H]3c3ccoc3)C21C` (stereo partly drawn) [3beta-HYDROXYDEOXODIHYDRODEOXYGEDUNIN], the relative growth amounted to 0.945.
Then `NC1CCN(C(=O)c2cc3ccccc3[nH]2)CC1`, with 0.995; and `O=C(C[C@@H]1CC=CC[C@H](NC(=O)OCC2c3ccccc3-c3ccccc32)C(=O)O[C@H](c2ccccc2)CNC1=O)N[C@@H](CO)Cc1ccccc1`, with 1.04; and `[N-]=[N+]=Nc1ccccc1[C@@H]1OC(c2ccc(OCCCO)cc2)=N[C@]1(Cc1ccccc1)C(=O)N1CCCCC1`, with 1.05.
The result for `CC1(C)CCC2=C(O1)C(=O)c1ccccc1C2=O` [alpha-LAPACHONE] reads 0.948; that for `CC(C)(C)OC(=O)C[C@@H]1CC=CC[C@@H](CC(=O)N[C@H](CO)Cc2ccccc2)C(=O)N[C@@H](C(C)(C)C)COC1=O`, 0.872; that for `Cc1ccc(S(=O)(=O)N[C@H]2CC[C@@H](CC(=O)N3CCC(Cc4ccccc4)CC3)O[C@@H]2CO)cc1`, 0.883.
For the compound `O=C(C[C@H]1CC[C@H]2[C@@H](COC[C@@H](O)CN2C(=O)c2ccc3c(c2)OCO3)O1)NCCN1CCCC1`, the relative growth is 1.07.
In turn, `COc1ccccc1S(=O)(=O)N[C@H]1C=C[C@@H](CC(=O)N2CCOCC2)O[C@@H]1CO` gave a relative growth of 0.924.
Consider `C=CCC[C@H](Cc1ccc(F)cc1)C(=O)O[C@@H](CNC(=O)[C@@H](CC=C)CC(=O)N(CCO)Cc1ccccc1)c1ccccc1`, for which the relative growth was 1.46.
Then `C[C@@H]1COCCN1`, with 0.939; and `COCCOC(=O)N1C(=O)[C@@]2(c3cc(C#CCNC(N)=O)ccc31)[C@H](c1ccccc1OCCO)N1[C@H](c3ccccc3)[C@H](c3ccccc3)OC(=O)[C@H]1[C@@H]2C(N)=O`, with 1.05; and `COc1ccccc1-c1ccc2c(c1)O[C@@H](CN(C)CC1CCOCC1)[C@H](C)CN([C@@H](C)CO)S2(=O)=O`, with 0.665.
Then `CC(C)(C)c1ccc(C(O)CCCN2CCC(C(O)(c3ccccc3)c3ccccc3)CC2)cc1` (stereo unspecified), with 0.77; and `Cc1cc(=O)oc2c(O)c(O)ccc12`, with 0.924; and `CSc1c(-c2ccc(Cl)cc2)[nH]c2ccccc12`, with 0.919.
For the compound `CC12CCCC(O)(C1)C1CC(C)(C)C1CC2` (stereo not drawn) [beta-CARYOPHYLLENE ALCOHOL], the relative growth is 0.958.
The result for `CN(C)CCN(Cc1cccs1)c1ccccn1.Cl` reads 1.04; that for `C[C@@H]1CN([C@@H](C)CO)S(=O)(=O)c2ccc(-c3cncnc3)cc2O[C@H]1CN(C)C(=O)C1CCCCC1`, 1.01; that for `Brc1ccc(-c2ccc(Br)s2)s1`, 0.924.
The compound `O=C(O)[C@H]1O[C@@H](Oc2cc3oc(-c4ccccc4)cc(=O)c3c(O)c2O)[C@H](O)[C@@H](O)[C@@H]1O` displayed a relative growth of 1.06.
The result for `O=C(O)CCNC(=O)c1cccc([N+](=O)[O-])c1` reads 1.16.

These data come from published antibiotic growth screens (doi:10.1038/s41589-023-01349-8).
